In US20070021415A1, “Pharmaceutical composition for the prevention or treatment of cerebral oedemas” (priority 2005, published 2007):

Test system: rats
Test: Effect of the dose of triethyl tin
Type: in vivo, rat

## C[CH2][Sn]([Br])([CH2]C)[CH2]C
TET 3 mg/kg/d
  mortality: no mortality
TET 4 mg/kg/d
  mortality: mortality from the 4th day
